Patent publication US20130230562

B1: caspase-7 (NCBI accession no: NP-001218.1), human, purchased from R&D Systems (protein)
chain: AKPDRSSFVPSLFSKKKKNVTMRSIKTTRDRVPTYQYNMNFEKLGKCIIINNKNFDKVTGMGVRNGTDKDAEALFKCFRSLGFDVIVYNDCSCAKMQDLLKKASEEDHTNAACFACILLSHGEENVIYGKDGVTPIKDLTAHFRGDRCKTLLEKPKLFFIQACRGTELDDGIQADSGPINDTDANPRYKIPVEADFLFAYSTVPGYYSWRSPGRGSWFVQALCSILEEHGKDLEIMQILTRVNDRVARHFESQSDDPHFHEKKQIPCVVSMLTKELYFSQ
B2: caspase-3 (NCBI accession no: NP-004337.2), human, purchased from R&D Systems (protein)
chain: SGISLDNSYKMDYPEMGLCIIINNKNFHKSTGMTSRSGTDVDAANLRETFRNLKYEVRNKNDLTREEIVELMRDVSKEDHSKRSSFVCVLLSHGEEGIIFGTNGPVDLKKITNFFRGDRCRSLTGKPKLFIIQACRGTELDCGIETDSGVDDDMACHKIPVEADFLYAYSTAPGYYSWRNSKDGSWFIQSLCAMLKQYADKLEFMHILTRVNRKVATEFESFSFDATFHAKKQIPCIVSMLTKELYFYH

Molecular target: ApoHsp (cage protein formed by the fusion protein of Hsp, DEVD motif and histidine polymer, labelled with Cy5.5 and BHQ3)

Protein | fluorescence signal (Cy5.5 dequenching after cleavage, 96-well plate, 37 C, 2 hours)
B1 | ApoHsp in a reaction with caspase-7 showed about 4 times greater fluorescence signal
B2 | about 7 times greater fluorescence signal compared to an extinction condition
